Compound activity deposited in PubChem BioAssay by National Center for Advancing Translational Sciences (NCATS).
uPA generation – cell surface uPA generation inhibition; 330,000 compounds, 0.31% hits; Potency, µM (titrated, usually from 38.3 µM), actives largely listed as inhibitors; AID 540303; cell surface uPA generation assay, qHTS; active means well fitted inhibition curve with a large enough effect; inconclusive means small, poorly fitted or top-dose-only effect; inactive means no such curve, though single readings can be large or run the other way; tested in mouse RAW 264.7 cells; further: nearly all actives have a fitted effect of over 55% in size
TDP1 block – inhibitors of human tyrosyl-DNA phosphodiesterase TDP1 | Potency, µM (highest dose often 130 µM), hits mostly inhibitors | recombinant TDP1, AlphaScreen DNA substrate cleavage | 350,000 compounds, 0.28% hits; further: nearly all actives have a fitted effect of over 40% in size
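AlphaScreen read-out: signal falls as enzyme removes the 3' tyrosine-FITC from a 5'-biotinylated DNA oligo (15 nM, 5 min, RT). Enzyme was E. coli-made recombinant Tdp1 at 1 nM, exposed to compound for 15 min beforehand; beads 10 ug/ml, 10 min.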
TDP1 cell CPT – growth inhibition of DT40 Tdp1-/-;hTDP1 cells with camptothecin (screen for TDP1 inhibitors); chicken DT40 Tdp1-/-;hTDP1 cells + 20 nM CPT, ATP luminescence, 48 h; Potency, µM (series often up to 46.2 µM), hits mostly inhibitors; 420,000 compounds, 12% hits; further: nearly all actives have a fitted effect of over 55% in size
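Chicken DT40 Tdp1-/- cells stably complemented with human TDP1 were seeded at 400 cells/well in medium containing 20 nM camptothecin, exposed to pin-transferred compounds, and grown at 37 °C for at least 48 hr. Viability was read as ATP luminescence.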
TDP1 cell noCPT – qHTS for Inhibitors of human tyrosyl-DNA phosphodiesterase 1 (TDP1): qHTS in cells in absence of CPT; 420,000 compounds, 15% hits; DT40 Tdp1-/- hTDP1 cells, no CPT, ATP luminescence, 48 h; Potency, µM (highest dose often 46.2 µM), most hits filed as inhibitors; further: nearly all actives have a fitted effect of over 55% in size
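Readout: luminescence from CellTiter-Glo after 30 min in the dark at RT. Cells: DT40 Tdp1-/- with stable hTDP1, 400/well. Exposure: compounds alone, ≥48 hr, 37 °C.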
miR-21 reporter – raises the signal of a miR-21 reporter | HeLa miR-21 FLuc reporter, luciferase, 48 h | Potency, µM (highest dose often 38.3 µM) | 340,000 tested, under 10 active | AID 2288; active = well fitted rising curve with a large enough effect; inconclusive = small, poorly fitted or top-dose-only effect; inactive = no such curve, though single readings can be large or run the other way;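 note: miR-21 action dims this reporter so a rising signal means less miR-21 action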
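HeLa cells stably expressing CMV-driven firefly luciferase with a downstream miR-21 binding sequence, endogenously expressing miR-21, were treated with titrations (up to about 40uM final) for 48 hours at 37 degree Celsius. Luciferase luminescence was read after lysis.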
A number is an active result; 0 = inactive; ? = inconclusive; - = no result. An excerpt weighted towards active compounds, which were near 16% of everything screened. Unless noted, the call rests on the fitted dose curve; in most records, active means well fitted curve in the direction sought with a large enough effect; inconclusive means small, poorly fitted or top-dose-only effect, or another doubt; inactive means no such curve, though single readings can be large; an effect the other way counts as inactive or inconclusive.

SMILES | uPA generation | TDP1 block | TDP1 cell CPT | TDP1 cell noCPT | miR-21 reporter
Cc1cnc(C(=O)OCC(=O)Nc2ccc(C)c(S(=O)(=O)N3CCCCCC3)c2)cn1 | 0 | 0 | 0 | 0 | 0
Cc1nnc2sc(SCC(=O)Nc3cccc(Cl)c3)nn2c1=O | 0 | 0 | 0 | 0 | 0
O=c1c(NCc2ccccc2Cl)nccn1-c1ccccc1 | - | 0 | 0 | 0 | 0
CN(C(=O)c1cccc(NC(=O)Cc2ccc(NC(=O)C3CCN(C(=O)c4ccccc4)CC3)cc2)c1)C1CC1 | 0 | - | 0 | 0 | -
CN(C(=O)c1cccc(NC(=O)Cc2ccc(NC(=O)C3CCN(C(=O)CCc4ccccc4)CC3)cc2)c1)C1CCC1 | 0 | - | 13µM | 13µM | -
CN(C(=O)c1cccc(NC(=O)Cc2ccc(NC(=O)C3CCN(C(=O)CCc4ccccc4)CC3)cc2)c1)C1CC1 | 0 | - | 16µM | 10µM | -
CN(C(=O)c1cccc(NC(=O)Cc2ccc(NC(=O)C3CCN(C(=O)c4ccccc4)CC3)cc2)c1)C1CCCC1 | 0 | - | ? | ? | -
CC(=O)c1cccc(NC(=O)COC(=O)c2ccccc2OCc2cccc(Br)c2)c1 | - | - | 0 | 0 | -
CC1(C)CC(=O)c2c(O)c(-c3ccccc3)c(=O)n(-c3ccccc3)c2C1 | 0 | 0 | 0 | 0 | 0
Cc1c(N)nc([C@H](CC(N)=O)NC[C@H](N)C(N)=O)nc1C(=O)N[C@H](C(=O)N[C@H](C)[C@@H](O)[C@H](C)C(=O)N[C@H](C(=O)NCCc1nc(-c2nc(C(=O)NCCCCN=C(N)N)cs2)cs1)[C@@H](C)O)[C@@H](O[C@@H]1O[C@@H](CO)[C@@H](O)[C@H](O)[C@@H]1O[C@H]1O[C@H](CO)[C@@H](O)[C@H](OC(N)=O)[C@@H]1O)c1cnc[nH]1 | - | - | 1.2µM | 0.94µM | -
COCOc1cc(O)c2c(=O)c(OCOC)c(-c3ccc(OCOC)c(OCOC)c3)oc2c1 | 0 | - | ? | 0 | -
O=S(=O)(c1ccccc1)N1CN(c2ccc(F)cc2F)c2nc3ccccc3nc21 | 0 | 0 | ? | 26µM | -
O=S(=O)(c1ccc(F)cc1)N1CN(Cc2ccco2)c2nc3ccccc3nc21 | 0 | 0 | ? | ? | 0
CC1(C(=O)Nc2ncc(Cc3ccc(Br)cc3)s2)Cc2ccccc2C(=O)O1 (stereo not given) | - | 0 | 23µM | 23µM | 0
CCS(=O)(=O)n1nc(C(=O)N2CCOCC2)nc1N | 0 | 0 | 0 | 0 | 0
Cc1cccc(C(C)C)c1NC(=O)C1CCCN1S(=O)(=O)c1cccc2nsnc12 (stereo not given) | - | 0 | 23µM | 15µM | 0
CC1CCCC(NC(=O)C2CCCN2S(=O)(=O)c2cccc3nsnc23)C1C (stereo not given) | 0 | 0 | ? | 15µM | 0
CCCCNC(=O)C1CCCN1S(=O)(=O)c1cccc2nsnc12 (stereo not given) | 0 | 0 | 0 | 0 | 0
CC(=O)Nc1ccc(NC(=O)C2CCCN2S(=O)(=O)c2cccc3nsnc23)cc1 (stereo not given) | 0 | 0 | 0 | 0 | 0
CCCc1nn2c(=O)cc(COC(=O)c3ccccc3NC(=O)COc3ccccc3F)nc2s1 | - | 0 | ? | ? | 0
O=C(COC(=O)c1ccccc1NC(=O)c1ccco1)NCc1ccc2c(c1)OCO2 | 0 | 0 | ? | ? | 0
O=C(O)c1cc(N2CCOCC2)nc2ccccc12 | 0 | - | 0 | 0 | 0
Cc1cccc(NC(=O)c2cc(N3CCOCC3)nc3ccccc23)c1 | 0 | 0 | 12µM | ? | 0
O=C(Nc1ccccc1)c1cc(N2CCOCC2)nc2ccccc12 | 0 | 0 | 0 | ? | 0
Cc1ccc(NC(=O)c2cc(N3CCOCC3)nc3ccccc23)cc1 | - | 0 | 23µM | ? | 0
SMILES | uPA generation | TDP1 block | TDP1 cell CPT | TDP1 cell noCPT | miR-21 reporter
CCOC(=O)c1cccc(NC(=O)c2cn(-c3cccc(OC)c3)c(=O)c3ccccc23)c1 | - | 0 | 0 | 0 | 0
O=C(CCCCn1c(=O)c2ccccc2n(CC(=O)Nc2cccc(F)c2)c1=O)NCc1ccccc1Cl | - | 0 | 0 | 0 | 0
Clc1cccc(Cl)c1CSc1nnc(CN2CCOCC2)n1-c1ccccc1 | 0 | 0 | 16µM | ? | 0
O=C(CCSCCC(=O)NN=Cc1ccccc1)NN=Cc1ccccc1 | 0 | - | 0 | 0 | -
CCOc1ccc(NC(=O)C(CC)n2c(=O)c(-c3ccccc3NC(C)=O)nc3ccccc32)cc1 (stereo not given) | - | 0 | 18µM | ? | 0
CCC(C(=O)Nc1ccc(C(=O)OC)cc1)n1c(=O)c(-c2ccccc2NC(C)=O)nc2ccccc21 (stereo not given) | - | 0 | 15µM | 3.3µM | 0
CC(=O)Nc1ccccc1-c1nc2ccccc2n(CC(=O)Nc2ccc(C)c(Cl)c2)c1=O | - | 0 | 0 | 0 | 0
CC(=O)Nc1ccccc1-c1nc2ccccc2n(C(C)C(=O)c2ccc(C)c(C)c2)c1=O (stereo not given) | - | 0 | ? | ? | 0
CCN(Cc1ccccc1)C(=O)COC(=O)Cc1c[nH]c2ccccc12 | 0 | 0 | 0 | 0 | -
Cc1ccc(C(=O)N/C(=C\c2ccccc2)C(=O)NCc2ccncc2)cc1 | 0 | 0 | 0 | 0 | 0
COc1ccccc1CN1CCN(S(=O)(=O)c2ccccc2)CC1 | 0 | 0 | 0 | ? | 0
CN(CCOc1ccccc1)CC(=O)Nc1cc([N+](=O)[O-])ccc1Cl | 0 | 0 | 0 | ? | 0
CCOc1ccc(CN(C)CC(=O)Nc2ccc([N+](=O)[O-])cc2Cl)cc1 | 0 | 0 | ? | 18µM | 0
C/C(=N\NC(=O)c1c(C)nc2ccccn12)c1ccc(O)cc1O | 0 | 0 | 3.7µM | 3.7µM | 0
COc1ccc(C(=O)OCC(=O)NC(C)CCc2ccccc2)c(OC)c1 (stereo not given) | 0 | - | 0 | 0 | 0
Cc1ccc(OCCC(=O)Nc2ccc(F)c(Cl)c2)cc1 | 0 | 0 | 0 | 0 | 0
O=S1OC(c2ccccc2)c2cc(Cl)ccc21 (stereo not given) | 0 | 0 | 0 | 0 | -
COc1ccccc1S(=O)(=O)Nc1ccc2nc(C)sc2c1 | 0 | 0 | 2.6µM | 21µM | -
Cc1ccc(S(=O)(=O)Nc2ccc3nc(C)sc3c2)c(C)c1 | ? | 0 | ? | 15µM | -
Cc1nc2ccc(NS(=O)(=O)c3c(C)c(C)cc(C)c3C)cc2s1 | 0 | 0 | ? | 21µM | 0
Cc1nc2ccc(NS(=O)(=O)c3ccccc3F)cc2s1 | 0 | 0 | ? | ? | -
Cc1nc2cc(NS(=O)(=O)c3ccccc3F)ccc2s1 | 0 | - | 0 | 0 | 0
Cc1ccc(S(=O)(=O)Nc2ccc3[nH]c(=O)[nH]c3c2)c(C)c1 | 0 | 0 | 0 | 0 | 0
Cc1nc2cc(NS(=O)(=O)c3c(C)c(C)cc(C)c3C)ccc2s1 | 0 | 0 | 20µM | 11µM | 0
N#CCCn1cc(C(=O)Nc2ccc(C(=O)O)cc2)c(-c2cc3ccccc3o2)n1 | 0 | 0 | 0 | 0 | 0
COc1cc(C(C)=O)cc(OC)c1O | 0 | 0 | 0 | 0 | -
